How the values were obtained:
[1] = tested on: SMARCB1-deleted G401 cells; details: in vitro, ATP content, versus RD cells
[2] = tested on: primary medulloblastoma cells; details: 500 nM or 2 μM for 4 days, BrdU for 4 hours
Medulloblastoma cells = assay: Medulloblastoma cell growth, total cells per milliliter counted; assay type: cell-based; details: 0.5 μM, 2 μM and 6 μM
[3] = adults, suspension and tablet formulations

CCN(c1cc(-c2ccc(CN3CCOCC3)cc2)cc(C(=O)NCc2c(C)cc(C)[nH]c2=O)c1C)C1CCOCC1 [tazemetostat]
proliferation of SMARCB1-deleted G401 cells [1]: Selective inhibition of proliferation
number of cells synthesizing DNA (BrdU incorporation) [2]: significantly decreased
concentration dependence of effect on medulloblastoma cell growth (Medulloblastoma cells): concentration dependent
predicted mean steady-state Cmax relative to observed values [3]: ≤ 2 fold

From US20210008075A1, “PEDIATRIC DOSING FOR TREATMENT OF CANCER WITH AN EZH2 INHIBITOR” (Epizyme, Inc., priority 2015, published 2021)
